{
  "source": "patent US8916540B2",
  "about": "“Antibiotic compositions and related screening methods” (Academia Sinica, priority 2008, dated 2014)",
  "key": {"[1]": {"biological_target": "PBP1b from Escherichia coli (Escherichia coli, UniProt P02919)", "type": "binding", "settings": "read-out: steady-state affinity (KD) by SPR; full-length E. coli PBP1b immobilized, 1:1 interaction model"}, "[2]": {"biological_target": "T1, PBP1 from Neisseria gonorrhoeae (Neisseria gonorrhoeae, UniProt O05131)", "T1 construct": "The recombinant proteins of the full-length genes from 16 bacteria; (His)6 (N); made in house; host or cells: E. coli BL21(DE3)", "test": "SPR moenomycin binding to immobilized full-length PBP", "settings": "read-out: SPR_KD, steady-state affinity, average values"}, "[3]": {"biological_target": "PBP1b from Streptococcus pneumoniae (Streptococcus pneumoniae, UniProt Q7CRA4)", "test": "SPR moenomycin binding to immobilized full-length PBP", "settings": "read-out: SPR_KD, steady-state affinity, average values"}, "[4]": {"biological_target": "T2, PBP1b from Pseudomonas aeruginosa (Pseudomonas aeruginosa, UniProt G3XD31)", "T2 sequence (G3XD31 1-774)": "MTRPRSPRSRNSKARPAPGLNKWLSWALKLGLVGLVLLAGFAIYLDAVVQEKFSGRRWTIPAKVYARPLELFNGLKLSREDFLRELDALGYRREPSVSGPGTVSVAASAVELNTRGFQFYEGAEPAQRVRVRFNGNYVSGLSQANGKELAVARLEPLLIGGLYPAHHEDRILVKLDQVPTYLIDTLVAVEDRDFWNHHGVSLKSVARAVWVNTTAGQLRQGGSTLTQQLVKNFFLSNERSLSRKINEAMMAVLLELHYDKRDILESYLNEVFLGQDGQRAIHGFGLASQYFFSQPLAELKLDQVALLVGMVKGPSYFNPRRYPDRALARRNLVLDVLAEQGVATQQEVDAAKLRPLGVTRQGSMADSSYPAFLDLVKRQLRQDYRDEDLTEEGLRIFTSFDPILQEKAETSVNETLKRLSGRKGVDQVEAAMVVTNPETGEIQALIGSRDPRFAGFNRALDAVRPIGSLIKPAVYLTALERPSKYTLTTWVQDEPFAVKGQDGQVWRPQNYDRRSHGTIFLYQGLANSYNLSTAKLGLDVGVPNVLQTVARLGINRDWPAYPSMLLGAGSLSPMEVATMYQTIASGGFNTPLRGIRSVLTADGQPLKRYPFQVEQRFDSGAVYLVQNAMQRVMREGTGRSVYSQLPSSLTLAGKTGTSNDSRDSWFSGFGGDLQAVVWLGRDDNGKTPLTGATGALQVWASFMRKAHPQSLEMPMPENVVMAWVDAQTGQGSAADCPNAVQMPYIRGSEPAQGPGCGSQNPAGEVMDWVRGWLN", "test": "SPR moenomycin binding to immobilized full-length PBP", "settings": "read-out: SPR_KD, steady-state affinity, average values"}, "[5]": {"biological_target": "PBP1a from Helicobacter pylori (Helicobacter pylori, UniProt O25319)", "test": "SPR moenomycin binding to immobilized full-length PBP", "settings": "read-out: SPR_KD, steady-state affinity, average values"}, "[6]": {"biological_target": "T3, PBP1b from Klebsiella pneumoniae (Klebsiella pneumoniae, UniProt A0ACD7TXF1)", "T3 sequence (A0ACD7TXF1 1-850)": "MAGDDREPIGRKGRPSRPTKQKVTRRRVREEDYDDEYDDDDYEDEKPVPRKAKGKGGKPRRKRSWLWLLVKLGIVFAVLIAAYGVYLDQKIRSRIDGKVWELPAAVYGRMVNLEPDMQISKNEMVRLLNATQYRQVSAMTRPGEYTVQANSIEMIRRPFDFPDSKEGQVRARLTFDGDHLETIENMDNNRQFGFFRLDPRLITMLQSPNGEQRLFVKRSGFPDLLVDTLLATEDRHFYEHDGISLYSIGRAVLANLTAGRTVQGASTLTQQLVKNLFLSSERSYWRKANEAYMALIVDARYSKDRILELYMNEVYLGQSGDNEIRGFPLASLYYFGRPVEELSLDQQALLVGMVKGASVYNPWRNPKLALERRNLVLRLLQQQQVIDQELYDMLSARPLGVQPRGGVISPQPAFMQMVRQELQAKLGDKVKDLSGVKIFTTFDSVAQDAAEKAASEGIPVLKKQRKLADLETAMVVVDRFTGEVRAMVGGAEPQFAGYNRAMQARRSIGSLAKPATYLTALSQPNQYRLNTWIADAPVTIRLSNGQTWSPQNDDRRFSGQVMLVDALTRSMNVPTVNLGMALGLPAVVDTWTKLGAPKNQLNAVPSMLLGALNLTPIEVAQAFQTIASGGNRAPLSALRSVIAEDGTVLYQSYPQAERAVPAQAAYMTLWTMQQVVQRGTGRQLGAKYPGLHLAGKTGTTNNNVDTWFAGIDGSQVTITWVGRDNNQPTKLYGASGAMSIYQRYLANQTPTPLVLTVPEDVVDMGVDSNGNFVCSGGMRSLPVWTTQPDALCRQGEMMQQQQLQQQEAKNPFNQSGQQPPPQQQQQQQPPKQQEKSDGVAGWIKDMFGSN", "test": "SPR moenomycin binding to immobilized full-length PBP", "settings": "read-out: SPR_KD, steady-state affinity, average values"}},
  "note": "pKd: −log10 of the molar value.",
  "data": [
    {"substance": "Moenomycin A [Compound 1]", "values": [
      {"measurement": "pKd", "setting": "[1]", "result": 6.36},
      {"measurement": "pKd", "setting": "[2]", "result": 6.35},
      {"measurement": "pKd", "setting": "[3]", "result": 6.05},
      {"measurement": "pKd", "setting": "[4]", "result": 6.06},
      {"measurement": "pKd", "setting": "[5]", "result": 6.48},
      {"measurement": "pKd", "setting": "[6]", "result": 6.09}
    ]}
  ]
}
